# Earlier results in patent US20040018253A1, “Use of CYP2D6 inhibitors in combination therapies” (priority 1999, published 2004).
# Test system: CYP
# Conditions: cited from earlier work
substance,measurement,value
hyperforin,CYP inhibitory activity,exhibit CYP inhibitory activity
